Measured values: PubChem BioAssay AID743287 (Broad Institute, 2014)
The entries are a selection whose mix differs from that of the whole data set. Active and inactive are the calls of the source.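 Rule for the calls: active = lowest replicate activation of at least 40%, so every replicate reaches that level; inactive = the rest.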

assay: primary screen for activators of insulin secretion dependent on glucose, INS-1E cells, GLuc reporter luminescence (AID 743287); details: INS-1E GLuc reporter insulin secretion, 2-3 h, at 16.6 µM, active compounds read high;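 note: 0% = median of neutral control wells and 100% = median of IBMX positive control wells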

Row | SMILES | activation
1 | CCOP1(=S)c2c(C)nn(CCC#N)c2N=C(c2ccccc2F)N1C (centres undefined) | inactive: 20.7%
2 | O=P(Nc1nccs1)(Oc1ccccc1)Oc1ccccc1 | inactive: -1.37%
3 | N#CCCN(C(=O)COC(=O)C(O)(c1ccccc1)c1ccccc1)c1ccc(F)cc1 | inactive: -13.2%
4 | CCOP1(=S)c2c(C)nn(CCC#N)c2N=C(c2ccc(F)cc2)N1C (centres undefined) | inactive: -9.08%
5 | CN(C)C(=O)c1cc([N+](=O)[O-])cc2c1-c1c(cc([N+](=O)[O-])cc1[N+](=O)[O-])C2=O | inactive: -20.3%
6 | CN(C(=O)Cc1ccc(Cl)c(Cl)c1)[C@H]1CC[C@@]2(CCCO2)C[C@@H]1N1CCCC1 | inactive: 0.015%
7 | NC(=O)Nc1ccc([As](=O)(O)O)cc1 | inactive: 10.7%
8 | [N-]=[N+]=NC1CCCCC1NC(=O)c1cc([N+](=O)[O-])cc([N+](=O)[O-])c1 (centres undefined) | inactive: -1.45%
9 | Cc1ccc(OP(=O)(Nc2ccc([N+](=O)[O-])cn2)Oc2ccc(C)cc2)cc1 | inactive: 4.31%
10 | Cc1ccc2nc3c(c(C)c2c1)CC(C(Cl)Cl)S3 (centres undefined) | inactive: 1.25%
11 | O=[As](O)(c1ccc(O)cc1)c1ccccc1O | inactive: 5.11%
12 | C[As](=O)(O)c1cccc(C(=O)O)c1 | inactive: -3.8%
13 | COc1cc(C(=O)NCC2(N3CCOCC3)CCCCC2)ccc1OCC(C)C | inactive: 7.19%
14 | CC(C)NC(=O)NP(=O)(Oc1ccccc1)Oc1ccccc1 | inactive: -13.6%
15 | CC(C)c1ccc(OP(=O)(Nc2ccccn2)Oc2ccccc2F)cc1 (centres undefined) | inactive: -7.28%
16 | COC(=O)C1(C)COP(=O)(N2CCCCCC2)OC1 (centres undefined) | inactive: 13.9%
17 | O=P1(N(CCCl)CCCl)OCCCN1CCCl (centres undefined) | inactive: 17.3%
18 | O=P1(N(CCCl)CCCl)Nc2ccccc2N1 | inactive: 20.6%
19 | COc1ccc2nc(NP(=O)(c3ccccc3)c3ccccc3)sc2c1 | inactive: 19.1%
20 | COc1cc(I)ccc1[As](=O)(O)O | inactive: 18.6%
21 | Cc1c2c(nc3ccccc13)SC(C(Cl)Cl)C2 (centres undefined) | inactive: 7.27%
22 | Cc1cc(=O)[nH]c(N[N+](=O)[O-])n1 | inactive: 1.97%
23 | O=[N+]([O-])c1cc(Oc2ccc([N+](=O)[O-])cc2C(F)(F)F)cc([N+](=O)[O-])c1 | inactive: 1.95%
24 | COc1ccc(N/C(=N/P(=O)(N2CCOCC2)N2CCOCC2)N2CCOCC2)cc1 | inactive: 7.16%
25 | O=C(O)C(=O)c1ccc(N(CCCl)CCCl)cc1 | inactive: 10.6%
26 | O=C(Nc1ccncc1[N+](=O)[O-])c1ccc([N+](=O)[O-])cc1[N+](=O)[O-] | inactive: -22.8%

Row | SMILES | activation
27 | COP1(=S)c2c(C)nn(CCC#N)c2N=C(c2ccc(F)cc2)N1C (centres undefined) | inactive: -3.6%
28 | COC(=O)C1(C)COP(=O)(N2CCCC2)OC1 (centres undefined) | inactive: 5.6%
29 | O=C(OC1CN2CCC1CC2)c1cccc([N+](=O)[O-])c1 (centres undefined) | inactive: 7.29%
30 | CCOC(=O)c1ccc(NC(=O)C(C)(CCl)SC)cc1 (centres undefined) | inactive: -5.36%
31 | CCCCOc1ccc(C(=O)NCC2(N3CCCCC3)CCCCC2)cc1OC | inactive: -6.05%
32 | Cc1cc(SC(NC(=O)c2ccccc2)C(Cl)(Cl)Cl)nc(C(C)C)n1 (centres undefined) | inactive: -13.9%
33 | CCOC(=O)Nc1ccc([As](=O)(O)O)c(O)c1 | inactive: -8.7%
34 | O=P(Nc1ccccn1)(c1cccc2ccccc12)c1cccc2ccccc12 | inactive: 3.77%
35 | Cc1cc(SC(NC=O)C(Cl)(Cl)Cl)ncn1 (centres undefined) | inactive: -5.37%
36 | O=[N+]([O-])c1ccc(Nc2ccc(Oc3ccc([N+](=O)[O-])cc3[N+](=O)[O-])cc2)c([N+](=O)[O-])c1 | inactive: -3.87%
37 | CCOC(=O)Nc1cccc([As](=O)(O)O)c1 | inactive: -25.2%
38 | O=P1(N(CCCl)CCCl)OCCCS1 (centres undefined) | inactive: 7.54%
39 | O=C(O)CNc1ccc([As](=O)(O)O)cc1 | inactive: 8.73%
40 | O=[N+]([O-])c1cccc(NC2=NCC(CBr)S2)c1 (centres undefined) | inactive: -0.594%
41 | COC(=O)C1(C)COP(=O)(Nc2ccccc2)OC1 (centres undefined) | inactive: -1.82%
42 | O=[N+]([O-])c1ncn(CCn2ncnc2[N+](=O)[O-])n1 | inactive: 17.1%
43 | CC(C)(C)C(=O)NC(Sc1ccncn1)C(Cl)(Cl)Cl (centres undefined) | inactive: 6.44%
44 | Cc1ccc(NP(=O)(Oc2ccccc2)Oc2ccccc2)nc1 | inactive: 12.1%
45 | O=[N+]([O-])c1cc([N+](=O)[O-])c(CCNc2ccccc2)c([N+](=O)[O-])c1 | inactive: 5.26%
46 | COc1ccc(C2=NCC(CBr)S2)cc1 (centres undefined) | inactive: -1.14%
47 | c1cc(-c2nn[nH]n2)ccc1-c1nn[nH]n1 | inactive: 7.95%
48 | CC1CCN(C(=O)Oc2c(Cl)cc(Cl)c3cccnc23)CC1 | inactive: -20.9%
49 | CC(C)=N/N=C(\N)N[N+](=O)[O-] | inactive: 5.56%
50 | CC(C)c1nc(Nc2ccccc2)n(P(=O)(N(C)C)N(C)C)n1 | inactive: 3.99%
51 | CN(C)C(=O)OCCc1n(C)cc[n+]1C | inactive: 17%
52 | CCN(/C(=N/P(=O)(N1CCOCC1)N1CCOCC1)N1CCOCC1)c1ccc(OC)cc1 | inactive: 6.65%

Row | SMILES | activation
53 | Nc1ccc([As](=O)(O)c2ccc(N)cc2)cc1 | inactive: 15.6%
54 | C[N+]1=C2C=CC=CC=C2SC12C([N+](=O)[O-])=CC([N+](=O)[O-])=C[C-]2[N+](=O)[O-] (centres undefined) | inactive: -8.41%
55 | Clc1ccc(Cl)c(NC2=NCC(CBr)S2)c1 (centres undefined) | inactive: 3.17%
56 | COc1ccccc1OP(=O)(Nc1ccc(C)cn1)Oc1ccccc1OC | inactive: -0.408%
57 | Cc1ccc(OP(=O)(Nc2nccs2)Oc2ccc(C)cc2)cc1 | inactive: -5.84%
58 | CN(C(=O)Cc1ccc(Cl)c(Cl)c1)[C@H]1CCCC[C@H]1N1CCCC1 | inactive: -3.38%
59 | NC(=O)c1cc([N+](=O)[O-])cc([N+](=O)[O-])c1N | inactive: 11.5%
60 | Oc1ccccc1CNc1ccccn1 | inactive: -2.86%
61 | O=C(NC(Sc1ccncn1)C(Cl)(Cl)Cl)c1ccccc1 (centres undefined) | inactive: -11.9%
62 | CC(C)CC(=O)NC(Sc1ccc(Cl)cc1)C(Cl)(Cl)Cl (centres undefined) | inactive: -4.13%
63 | Nc1cc(N)c2nonc2c1[N+](=O)[O-] | inactive: 8.96%
64 | CCn1c(=O)n(C2CCN(CC3CCCCCCC3)C[C@H]2CO)c2ccccc21 (some centres undefined) | inactive: -10.1%
65 | Cc1cc(SC(NC(=O)c2ccc(F)cc2)C(Cl)(Cl)Cl)ncn1 (centres undefined) | inactive: -9.85%
66 | Cc1ccc(NP(=O)(Oc2ccccc2F)Oc2ccccc2F)nc1 | inactive: 20.7%
67 | CN(C)P(=O)(N(C)C)n1c(Nc2ccccc2)nnc1-c1ccccc1 | inactive: 14.9%
68 | O=P(Nc1nc2ccc(Cl)cc2s1)(c1ccccc1)c1ccccc1 | inactive: 2.69%
69 | O=C(O)c1ccccc1[As](=O)(O)O | inactive: 12%
70 | CC(=O)Nc1ccc([As](=O)(O)O)cc1 | inactive: -1.69%
71 | Nc1cccc2ccc([As](=O)(O)O)cc12 | inactive: 10.7%
72 | CN(C(=O)Cc1ccccc1)C1CC[C@@]2(CCCO2)C[C@@H]1N1CCCC1 (some centres undefined) | inactive: -0.171%
73 | CCN(N=Nc1nonc1N)c1nonc1N | inactive: 15%
74 | c1ccc(-c2nn[nH]n2)c(-c2nn[nH]n2)c1 | inactive: 9.28%
75 | CCNC(=S)/N=C(\N)N[N+](=O)[O-] | inactive: -3.52%
76 | O=C(NC1CCS(=O)(=O)C1)NP(=S)(Oc1ccccc1)Oc1ccccc1 (centres undefined) | inactive: -13.2%
77 | Cc1ccccc1OP(=O)(Nc1ccccn1)Oc1ccccc1C | inactive: -10.1%
78 | CC(NC(=O)COC(=O)C(O)(c1ccccc1)c1ccccc1)c1ccccc1 (centres undefined) | inactive: -19.5%

Row | SMILES | activation
79 | CN(C)C(=O)Oc1noc2ccccc12 | inactive: -2.64%
80 | O=c1c2cc([N+](=O)[O-])ccc2[nH]c2c([N+](=O)[O-])cc([N+](=O)[O-])cc12 | inactive: -26%
81 | O=C(OC1CN2CCC1CC2)c1ccccc1 (centres undefined) | inactive: 4.95%
82 | CC(=O)NC(SC(=S)N(CC(C)C)CC(C)C)C(Cl)(Cl)Cl (centres undefined) | inactive: -2.54%
83 | Cc1ccc(OP(=O)(Nc2ccccn2)Oc2ccc(C)cc2)cc1 | inactive: 5.95%
84 | CC(C)(C)C(=O)NC(Sc1ccccc1)C(Cl)(Cl)Cl (centres undefined) | inactive: 29.8%
85 | CCc1cc(O)c([N+](=O)[O-])c(C)c1[N+](=O)[O-] | inactive: -12.6%
86 | CCOc1ccc(C2=NCC(CBr)S2)cc1 (centres undefined) | inactive: -12.1%
87 | CC(=O)Nc1ccc([As](=O)(O)O)c(O)c1 | inactive: 9.87%
88 | Cc1ccccc1CN(C)C(=O)COC(=O)C(O)(c1ccccc1)c1ccccc1 | inactive: -7.67%
89 | C[C@H]1OP(=O)(Oc2ccccc2)C[C@@H]2O[C@@H]21 (some centres undefined) | inactive: 8.22%
90 | N#C/C(=C\c1ccc(N(CCBr)CCBr)cc1)C(N)=O | inactive: -4.28%
91 | CC(=O)c1ccc(N2CC2c2ccncc2)cc1 (centres undefined) | active: 46.1%
92 | COC(=O)C1(C)COP(=O)(NCc2ccccc2)OC1 (centres undefined) | inactive: 5.86%
93 | CC(C)C(=O)NC(Sc1ccccc1)C(Cl)(Cl)Cl (centres undefined) | inactive: 8.83%
94 | O=P(Nc1nc2ccccc2s1)(c1ccccc1)c1ccccc1 | inactive: 17.5%
95 | C[C@H]1OP(=O)(Oc2ccccc2)[C@H](O)[C@H](O)[C@H]1N=[N+]=[N-] (some centres undefined) | inactive: -7.06%
96 | O=P(Nc1ccccn1)(c1ccc(Br)cc1)c1ccc(Br)cc1 | inactive: -7.89%
97 | CN(C)C1(CNC(=O)c2ccc(Cl)c(S(N)(=O)=O)c2)CCCCC1 | inactive: 2.36%
98 | Nc1ccc(CCCCOc2ccccc2)cc1 | inactive: -7.84%
99 | C/C(N)=N\P(=O)(OCc1ccccc1)OCc1ccccc1 | inactive: 8.3%
100 | Nc1ccc([As](=O)(O)c2ccc([N+](=O)[O-])cc2)cc1 | inactive: -5.45%
101 | C(Cc1nn[nH]n1)Cc1nn[nH]n1 | inactive: -2.39%
102 | O=[As](O)(c1ccccc1)c1ccc(O)cc1 | inactive: 7.46%
103 | CC(=O)NC(SC(=S)N(C)C)C(Cl)(Cl)Cl (centres undefined) | inactive: -20.8%
104 | O=[N+]([O-])c1ncn(CCn2cnc([N+](=O)[O-])n2)n1 | inactive: -11.3%
